In this assay the test system is Hepatocellular carcinoma cells. Description: Rat hepatocellular carcinoma study: cancer cell viability vs μM of anti-cancer agents (FIG. 3). As to conditions: 23 hour period; cell viability 5% vs 55%.

Turning to `O=C(O)C(=O)CBr` [3-Bromopyruvate, 3-bromopyruvate], the “efficiency as compared to the closest anti-cancer agent, methotrexate, in terms of cell viability” value amounted to 10 times.

Source of the values: patent publication US11077078B2, “Compositions and methods for the treatment of cancer” (KoDiscovery, LLC, priority 2006, dated 2021).
